Measured values taken from PMC5681660, “Reduced hepatitis B and D viral entry using clinically applied drugs as novel inhibitors of the bile acid transporter NTCP” (Scientific Reports, 2017).

Target: T1, human NTCP (Homo sapiens, UniProt Q14973)
T1 sequence (Q14973 1-349): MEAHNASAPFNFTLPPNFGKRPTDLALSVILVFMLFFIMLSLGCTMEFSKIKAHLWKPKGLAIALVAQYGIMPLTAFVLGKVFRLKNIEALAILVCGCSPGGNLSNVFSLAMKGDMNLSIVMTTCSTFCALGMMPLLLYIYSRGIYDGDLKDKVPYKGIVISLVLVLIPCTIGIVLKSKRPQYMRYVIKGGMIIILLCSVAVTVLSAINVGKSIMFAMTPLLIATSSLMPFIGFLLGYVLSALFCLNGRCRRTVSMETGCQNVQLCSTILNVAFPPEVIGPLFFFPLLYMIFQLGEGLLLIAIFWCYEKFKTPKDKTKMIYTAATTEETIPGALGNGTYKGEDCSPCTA
Assay: Screening fluorescent competitive Myrcludex B-FITC binding assay (96-well, 10 µM drug)
Conditions: for B-score binding assay / %NTCP binding: screening Myrcludex B-FITC binding, 10 µM drug; for remaining activity at 10 µM: 0.5 h, read-out: %NTCP binding, screening Myrcludex B-FITC binding, 10 µM drug, Prestwick library; for %NTCP binding: Prestwick library

Structure (SMILES)	B-score binding assay	also measured
CN1[C@@H]2CC[C@H]1C[C@@H](OC(=O)c1c[nH]c3ccccc13)C2 [Tropisetron HCl]	2.574	
COCC1=C(C(=O)OC(C)OC(=O)OC(C)C)N2C(=O)[C@@H](NC(=O)/C(=N\OC)c3csc(N)n3)[C@H]2SC1 (stereo partly shown) [Cefpodoxime proxetil]	0.322	
CN1CCN(CCCN2c3ccccc3Sc3ccc(Cl)cc32)CC1 [Prochlorperazine dimaleate]	-0.656	
CCc1cccc(CC)c1NC(=O)CN(CC(=O)O)CC(=O)O [Etifenin]	-0.181	
CC[C@H](C)C(=O)O[C@H]1C[C@@H](C)C=C2C=C[C@H](C)[C@H](CC[C@@H]3C[C@@H](O)CC(=O)O3)[C@H]21 [Lovastatin]	-2.793	
O=c1[nH]c2ccccc2n1CCCN1CCC(n2c(=O)[nH]c3cc(Cl)ccc32)CC1 [Domperidone]	1.228	remaining activity at 10 µM: 71.7%
CN(C(=O)CN(CCO)CC(=O)N(C)C(C)(C)Cc1ccccc1)C(C)(C)Cc1ccccc1 [Oxethazaine]	-0.191	
Nc1ccc(S(=O)(=O)c2ccc(N)cc2)cc1 [Dapsone]	-2.85	
COc1ccc2c(c1)c(CC(=O)O)c(C)n2C(=O)c1ccc(Cl)cc1 [Indomethacin]	-0.766	
[H]/N=C(\N/C(=N/[H])NCCCCCCNC(=N)NC(=N)Nc1ccc(Cl)cc1)Nc1ccc(Cl)cc1 [Chlorhexidine]	-2.972	
CCC1(c2cccc(O)c2)CCCCN(C)C1 (stereo not shown) [Meptazinol hydrochloride]	1.195	remaining activity at 10 µM: 106%
O=C1[C@H](CC[C@H](O)c2ccc(F)cc2)[C@@H](c2ccc(O)cc2)N1c1ccc(F)cc1 [ezetimibe, reference compound]	-3.653	
Cc1cc(C(=O)NNCc2ccccc2)no1 [Isocarboxazid]	-0.695	
COC(=O)[C@@H]1[C@H]2C[C@H]3c4[nH]c5ccccc5c4CCN3C[C@@H]2CC[C@@H]1O [Yohimbine hydrochloride]	-0.435	
C[N+](C)(C)CCOC(N)=O [Carbachol]	-0.839	
CC(=O)[C@H]1CC[C@H]2[C@@H]3CCC4=CC(=O)CC[C@]4(C)[C@H]3CC[C@]12C [Progesterone]	-0.466	
CC(=O)Oc1ccccc1C(=O)Nc1ncc([N+](=O)[O-])s1 [Nitazoxanide]	-0.318	
C[C@H](CCC(=O)O)[C@H]1CC[C@H]2[C@@H]3[C@@H](O)C[C@@H]4C[C@H](O)CC[C@]4(C)[C@H]3CC[C@]12C [Urosiol]	-0.009	
O=C(O)c1cc(/N=N/c2ccc(S(=O)(=O)Nc3ccccn3)cc2)ccc1O [Sulfasalazine]	-3.682	
O=C1CC2(CCCC2)CC(=O)N1CCCCN1CCN(c2ncccn2)CC1 [Buspirone hydrochloride]	-1.506	
COc1ccccc1OCC(O)CO (stereo not shown) [Guaifenesin]	-0.891	
CN(Cc1cnc2nc(N)nc(N)c2n1)c1ccc(C(=O)N[C@@H](CCC(=O)O)C(=O)O)cc1 (racemic) [Amethopterin (R,S)]	1.483	%NTCP binding: 75.5223%
Cc1cccc(CN2CCN(C(c3ccccc3)c3ccc(Cl)cc3)CC2)c1.Cl.Cl (stereo not shown) [Meclozine dihydrochloride]	3.865	%NTCP binding: 105.599%
CC[C@H]1OC(=O)[C@H](C)[C@@H](O[C@H]2C[C@@](C)(OC)[C@@H](O)[C@H](C)O2)[C@H](C)[C@@H](O[C@@H]2O[C@H](C)C[C@H](N(C)C)[C@H]2O)[C@](C)(O)C[C@@H](C)/C(=N\OCOCCOC)[C@H](C)[C@@H](O)[C@]1(C)O [Roxithromycin]	-2.478	
CS(=O)(=O)O.O=C(O[C@H]1C[C@H]2CC3C[C@@H](C1)N2CC3=O)c1c[nH]c2ccccc12 [Dolasetron mesilate]		%NTCP binding: 103.338%; B-score binding assay (B-score): 1.603
CC(C)OC(=O)C(C)(C)Oc1ccc(C(=O)c2ccc(Cl)cc2)cc1 [Fenofibrate]	-2.2	

Counter-ions that a name gives are not always drawn.
